Test results published in US5741891A, “Pulmonary surfactant peptide solubilization process” (Ortho Pharmaceutical Corporation, priority 1996, dated 1998).

Tests used:
[1] = OD450 light-scattering measurement of aggregation during incubation in trifluoroethanol (TFE); conditions: 27° C.
[2] = 5 mg/mL in 95% EtOH, after TFE treatment
[3] = OD450 light-scattering measurement of aggregation of peptide dissolved in 95% EtOH; conditions: 5 mg/ml, 45° C.

Sequence	OD450 ([1]; time 2 hrs)	OD450 ([1]; time 5 hrs)	OD450 ([1]; time 7 hrs)	OD450 ([1]; time 24.5 hrs)	OD450 ([1]; time 24.5 hrs (filtered))	appearance of solution on dissolving in 95% EtOH [2]	OD450 ([3]; t = 0 min)	OD450 ([3]; t = 0 min, listed as BO)	OD450 ([3]; t = 10 min)	OD450 ([3]; t = 20 min)	OD450 ([3]; t = 30 min)	OD450 ([3]; t = 40 min)
KLLLLKLLLLKLLLLKLLLLK [KL4 peptide]	0.0204	0.0165	0.0234	0.0124	0.0067	–	–	–	–	–	–	–
KLLLLKLLLLKLLLLKLLLLK [TFE treated KL-4]	–	–	–	–	–	clear non viscous solution	< 0.05	0.0199	0.0173	0.0131	0.0589	0.0681
